Experimental data from patent publication US5807824A, “C5A receptor antagonists having substantially no agonist activity” (priority 1995, dated 1998).

Columns and labels:
[1] = molecular target: T1, C5a receptor (Homo sapiens, UniProt P21730); assay: Receptor binding assay: displacement of [125I]Bolton-Hunter labelled C5a from PMNL membranes; conditions: Table 6, Example 10 comparison with decapeptide
T1 construct: Neutrophils were purified from human peripheral blood; endogenous in cells; host or cells: neutrophils from human peripheral blood
T1 sequence (P21730 1-350): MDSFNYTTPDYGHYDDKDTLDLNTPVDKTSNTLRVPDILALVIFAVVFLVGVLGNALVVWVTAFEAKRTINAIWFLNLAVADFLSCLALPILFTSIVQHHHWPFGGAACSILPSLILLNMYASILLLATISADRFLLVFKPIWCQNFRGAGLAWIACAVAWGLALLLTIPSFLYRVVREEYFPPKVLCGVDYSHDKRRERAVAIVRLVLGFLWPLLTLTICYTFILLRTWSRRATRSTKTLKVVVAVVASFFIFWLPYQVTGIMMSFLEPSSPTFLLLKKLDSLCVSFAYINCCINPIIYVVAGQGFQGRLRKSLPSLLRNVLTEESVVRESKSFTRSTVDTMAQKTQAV
Description: C5a and C5a receptor antagonists were tested for their affinity for the C5a receptor. […] PMNLs were resuspended in Hanks balanced salt solution, without Ca^++ and Mg^++ and which contained 10 mM HEPES at pH 7.3, 2.5 mM MgCl2, 100 units/ml DNAse I, 0.1 mM PMSF, 10 μg/ml aprotonin and 10 μg/ml leupeptin. They were then equilibrated at 400 psi for 20 min at 4° C. in a nitrogen cavitation bomb. After evacuation into 3 volumes 0.5M KHCO3 containing 25 mM EDTA and the protease inhibitors listed above, the gelatinous material was removed with forceps and the mixture was centrifuged at 400×g for 10 min at 4° C. The resulting supernatant was centrifuged at 50,000×g for 60 min at 4° C. The pellets from the aliquots representing 200×10^6 cells were stored at -70° C. […]
Nonspecific binding was determined in the presence of 10 nM unlabelled C5a. […] Bound and free radioactivity were separated by vacuum filtration through GF/C glass fiber filters (Whatman), pretreated for 90 min with 0.05% PEI (polyethyleneimine) using a Cell Harvester (Brandel, Gaithersburg, Md.). Filters were washed with 3×5 ml of ice-cold 5 mM Tris buffer at pH 7.4 and counted in a multiwell Gamma counter (Genesys). Data were analyzed using the non-linear regression analysis program, RS/1 (Bolt, Beranek and Newman, Boston) and expressed as IC50 values. […]

[2] = molecular target: T1, C5a receptor; assay: C5a induced Ca++ rise assay in fura-2 loaded neutrophils; assay type: cell-based; conditions: Table 6, Example 10 comparison with decapeptide
Text: The antagonism of the instant C5a analogues may be quantified as an IC50 in the calcium rise assay disclosed in Seligmann et al., Agents and Actions 21:375-378 (1987), described in detail in Example 7.
See Hugli et al., CRC Crit. Rev. Immunol. 1:321-326 (1981) and PCT WO 92/10205. A quantitative measure of this property may also be obtained using the calcium rise assay disclosed in Seligmann et al., supra, also described in Example 7. EC50 is a measure of agonistic activity. For purposes of the present invention, the EC50 value is that concentration of C5a analogue which produces 50% of the maximum response caused by that same C5a analogue. Applicants have not detected agonist activity of the instant C5a analogues up to a concentration of at least about 8.0×10^-7 M, and preferably at least about 3.0×10^-6 M in the same calcium rise assay.
Recombinant human C5a was dissolved in Hanks buffer containing 0.01% Tween-20, and all stock dilutions of C5a were made in this buffer. […] The amount of fluorescence was determined using an SLM 8000 spectrofluorometer (SLM-Aminco Instruments, Urbana, Ill.). Curvettes were placed in the fluorometer and after obtaining a baseline for 10 sec, the C5a receptor antagonists to be tested for antagonistic properties were added and any change in fluoresence excitation ratio of 340 nm/380 nm (emission of 510 nm) was measured. […]

Ki [1]: 5 µM | EC50 [2]: 2.06 µM
Structure (SMILES): CC[C@H](C)[C@H](N)C(=O)N[C@@H](CO)C(=O)N[C@@H](Cc1ccccc1)C(=O)N[C@@H](CCCCN)C(=O)N[C@@H](CC(=O)O)C(=O)N[C@@H](CCSC)C(=O)N[C@@H](CCC(N)=O)C(=O)N[C@@H](CC(C)C)C(=O)NCC(=O)N[C@@H](CCCN=C(N)N)C(=O)O [Decapeptide, reference compound]
